These results are taken from patent publication US11168080B2, “Dynamin-1-like protein inhibitors” (Mitobridge, Inc., priority 2017, dated 2021).

Chains of the proteins cited; added tags and fusions are not shown.
UniProt O00429, whole entry: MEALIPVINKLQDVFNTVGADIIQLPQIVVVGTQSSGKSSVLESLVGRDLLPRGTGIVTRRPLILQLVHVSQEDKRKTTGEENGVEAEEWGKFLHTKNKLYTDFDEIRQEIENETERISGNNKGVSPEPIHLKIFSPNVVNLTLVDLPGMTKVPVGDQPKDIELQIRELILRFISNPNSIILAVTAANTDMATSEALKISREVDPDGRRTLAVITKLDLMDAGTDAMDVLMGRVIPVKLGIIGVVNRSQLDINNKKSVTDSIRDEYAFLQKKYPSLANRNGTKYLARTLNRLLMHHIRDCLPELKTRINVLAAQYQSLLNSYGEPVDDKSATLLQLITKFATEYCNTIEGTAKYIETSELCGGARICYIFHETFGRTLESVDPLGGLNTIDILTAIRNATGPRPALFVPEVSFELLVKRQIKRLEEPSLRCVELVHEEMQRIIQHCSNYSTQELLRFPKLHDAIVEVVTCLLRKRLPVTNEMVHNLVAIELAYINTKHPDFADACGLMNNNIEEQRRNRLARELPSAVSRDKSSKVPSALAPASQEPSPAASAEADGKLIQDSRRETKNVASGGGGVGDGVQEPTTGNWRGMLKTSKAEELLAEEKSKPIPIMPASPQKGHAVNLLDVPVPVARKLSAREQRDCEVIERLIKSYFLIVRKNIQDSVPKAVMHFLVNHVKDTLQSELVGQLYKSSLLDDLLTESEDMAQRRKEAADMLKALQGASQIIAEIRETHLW

In this assay the target is Drp1 (Homo sapiens (Human), UniProt O00429). Kind of assay: Drp1 Activity Screen: colorimetric (malachite green) GTPase assay. Type of assay: biochemical. The following applies: 1 mM GTP, 20 min at 37° C.; for IC50: GTPase activity, 0.6 μM Drp1 preincubated with 0.1 mg/mL liposomes; for max % inh: max % inhibition of Drp1 GTPase activity, 0.6 μM Drp1, 0.1 mg/mL liposomes. The protocol:
The GTPase activity of Drp1 was assayed using a colorimetric assay similar to as described previously by Leonard M. et al. “Robust colorimetric assays for dynamin's basal and stimulated GTPase activities.” Methods Enzymol. […] Briefly, for GTPase assays of purified Drp1 inhibitor samples, 0.6 μM Drp1 preincubated with 0.1 mg/mL liposomes (consisting of 80% soybean lipids/20% cardiolipin) and inhibitor was added to 1 mM GTP in a microtiter plate for 20 min at 37° C. in 4 mM MgCl2, 10 mM Hepes (pH 7.0), 100 mM KCl, 1 mM DTT. Reactions were stopped by diluting with 0.5 mM EDTA. Samples were then incubated with malachite green reagent (1 mM malachite green and 50 mM ammonium molybdate in 1 N HCl), and the absorbance at 650 nm was measured. The reaction rates, IC50 values, and max % inhibition were determined using Excel/GraphPad Prism software.

Turning to `Cc1cc(C(=O)NCc2cccc(C(=O)O)c2)n(Cc2csc(N3CCCCC3)n2)c1` [Compound A-2, 3-((4-methyl-1-((2-(piperidin-1-yl)thiazol-4-yl)methyl)-1H-pyrrole-2-carboxamido)methyl)benzoic Acid], half-maximal inhibition (IC50) required 3.2 µM and the max % inh is on record as 93%.
The corresponding values for `Cc1cc(C(=O)Nc2cccc(C(=O)O)c2)n(Cc2csc(N3CCCCC3)n2)c1` [Compound A-4, 3-(4-methyl-1-((2-(piperidin-1-yl)thiazol-4-yl)methyl)-1H-pyrrole-2-carboxamido)benzoic Acid] are 7 µM and 74%.
The matching figures for `Cc1cc(C(=O)Nc2ccc(C(=O)O)cc2)n(Cc2csc(N3CCCCC3)n2)c1` [Compound A-5, 4-(4-methyl-1-((2-(piperidin-1-yl)thiazol-4-yl)methyl)-1H-pyrrole-2-carboxamido)benzoic Acid]: 1.9 µM and 84%.
As to `Cc1cc(C(=O)Nc2ccc(C(=O)O)cc2)n(Cc2csc(N3CCCC3)n2)c1` [Compound A-10, 4-(4-methyl-1-((2-(pyrrolidin-1-yl)thiazol-4-yl)methyl)-1H-pyrrole-2-carboxamido)benzoic Acid], 78 µM corresponded to half-maximal inhibition (IC50) and the max % inh turned out to be 56%.
The matching figures for `Cc1ccc(C(=O)Nc2ccc(C(=O)O)cc2)n1Cc1csc(N2CCCCC2)n1` [Compound A-42, 4-(5-methyl-1-((2-(piperidin-1-yl)thiazol-4-yl)methyl)-1H-pyrrole-2-carboxamido)benzoic Acid]: 26 µM and 58%.
The matching figures for `Cc1cc(C(=O)Nc2ccc(C(=O)O)cc2)n(Cc2csc(-c3cccnc3)n2)c1` [Compound A-44, 4-(4-methyl-1-((2-(pyridin-3-yl)thiazol-4-yl)methyl)-1H-pyrrole-2-carboxamido)benzoic Acid]: 69 µM and 27%.
Take `O=C(O)c1ccc(NC(=O)c2cc([N+](=O)[O-])cn2Cc2csc(N3CCCCC3)n2)cc1` [Compound A-45, 4-(4-nitro-1-((2-(piperidin-1-yl)thiazol-4-yl)methyl)-1H-pyrrole-2-carboxamido)benzoic Acid]: it took 22 µM to reach half-maximal inhibition (IC50) and the max % inh is reported as 49%.
Regarding `Cc1cc(C(=O)Nc2ccc(C(=O)O)cc2)n(Cc2csc(N3CCCC(F)C3)n2)c1` (stereo not shown) [Compound A-46, 4-(1-((2-(3-fluoropiperidin-1-yl)thiazol-4-yl)methyl)-4-methyl-1H-pyrrole-2-carboxamido)benzoic Acid], half-maximal inhibition (IC50) required 12.7 µM and the max % inh was 64%.
The matching figures for `Cc1cc(C(=O)Nc2ccc(C(=O)O)cc2)n(Cc2csc(-c3ccc4c(c3)CCO4)n2)c1` [Compound A-48, 4-(1-((2-(2,3-dihydrobenzofuran-5-yl)thiazol-4-yl)methyl)-4-methyl-1H-pyrrole-2-carboxamido)benzoic Acid]: 39.5 µM and 58%.
The corresponding values for `Cc1cc(C(=O)Nc2ccc(C(=O)O)cc2)n(Cc2csc(-c3cn[nH]c3)n2)c1` [Compound A-49, 4-(1-((2-(1H-pyrazol-4-yl)thiazol-4-yl)methyl)-4-methyl-1H-pyrrole-2-carboxamido)benzoic Acid] are 5.6 µM and 79%.
`Cc1cc(C(=O)Nc2ccc(C(=O)O)cc2)n(Cc2csc(N3CCCCC3)n2)n1` [Compound A-50, 4-(3-methyl-1-((2-(piperidin-1-yl)thiazol-4-yl)methyl)-1H-pyrazole-5-carboxamido)benzoic Acid]: the midpoint of inhibition, the IC50, lay at 30.5 µM and the max % inh was determined as 41%.
On to `O=C(O)c1ccc(NC(=O)c2cc(-c3ccccc3)cn2Cc2csc(N3CCCCC3)n2)cc1` [Compound A-51, 4-(4-phenyl-1-((2-(piperidin-1-yl)thiazol-4-yl)methyl)-1H-pyrrole-2-carboxamido)benzoic Acid], for which 1.8 µM corresponded to half-maximal inhibition (IC50) and the max % inh came to 78%.
The matching figures for `CCc1cc(C(=O)Nc2ccc(C(=O)O)cc2)n(Cc2csc(N3CCCCC3)n2)c1` [Compound A-52, 4-(4-ethyl-1-((2-(piperidin-1-yl)thiazol-4-yl)methyl)-1H-pyrrole-2-carboxamido)benzoic Acid]: 2.1 µM and 81%.
Turning to `Cc1cc(C(=O)Nc2ccc(C(=O)O)cc2)n(Cc2csc(C3=CCCCC3)n2)c1` [Compound A-55, 4-(1-((2-(cyclohex-1-en-1-yl)thiazol-4-yl)methyl)-4-methyl-1H-pyrrole-2-carboxamido)benzoic Acid], the IC50 (usually the concentration at which inhibition is half-maximal) is 11.6 µM and the max % inh came to 80%.
In the case of `COC(C)c1cc(C(=O)Nc2ccc(C(=O)O)cc2)n(Cc2csc(N3CCCCC3)n2)c1` (stereo not shown) [Compound A-59, 4-(4-(1-methoxyethyl)-1-((2-(piperidin-1-yl)thiazol-4-yl)methyl)-1H-pyrrole-2-carboxamido)benzoic Acid], the IC50 is 17.2 µM and the max % inh is reported as 59%.
`Cc1cc(C(=O)Nc2ccc(C(=O)O)cc2)n(Cc2csc(C3CCCCC3)n2)c1` [Compound A-60, 4-(1-((2-cyclohexylthiazol-4-yl)methyl)-4-methyl-1H-pyrrole-2-carboxamido)benzoic Acid] had an IC50 of 8.9 µM and a max % inh of 70%.
`CC(O)c1cc(C(=O)Nc2ccc(C(=O)O)cc2)n(Cc2csc(N3CCCCC3)n2)c1` (stereo not shown) [Compound A-65, 4-(4-(1-hydroxyethyl)-1-((2-(piperidin-1-yl)thiazol-4-yl)methyl)-1H-pyrrole-2-carboxamido)benzoic Acid] came in with an IC50 of 43.7 µM and a max % inh of 48%.
